In PubChem BioAssay (NCATS):
The list shows a part of the results, in another mix than the full data. Records with an inconclusive call do not appear. Calls of active or inactive are those of the source. Unless noted, calls come from the whole dose curve; as a rule, active = well fitted curve in the direction sought with a large enough effect; inconclusive = small, poorly fitted or top-dose-only effect, or another doubt; inactive = no such curve, though single readings can be large; an effect the other way counts as inactive or inconclusive.

By UniProt entry, the sequences of proteins in these tests, tags left out. Residues count along the entry.
UniProt P08482, whole entry: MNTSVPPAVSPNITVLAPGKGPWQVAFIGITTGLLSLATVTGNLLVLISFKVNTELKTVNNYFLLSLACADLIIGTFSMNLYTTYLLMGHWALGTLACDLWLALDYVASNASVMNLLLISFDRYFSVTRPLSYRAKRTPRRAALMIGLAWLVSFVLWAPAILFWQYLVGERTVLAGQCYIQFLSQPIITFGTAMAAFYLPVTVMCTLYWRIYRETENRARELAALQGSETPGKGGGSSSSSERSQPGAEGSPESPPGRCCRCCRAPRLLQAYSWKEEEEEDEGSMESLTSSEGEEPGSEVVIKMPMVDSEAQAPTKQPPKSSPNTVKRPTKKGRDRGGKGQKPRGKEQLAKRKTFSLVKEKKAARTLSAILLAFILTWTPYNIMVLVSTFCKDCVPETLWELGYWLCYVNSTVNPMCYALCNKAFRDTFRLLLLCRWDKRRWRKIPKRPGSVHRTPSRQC
UniProt P14618, 1-531 isoform 2: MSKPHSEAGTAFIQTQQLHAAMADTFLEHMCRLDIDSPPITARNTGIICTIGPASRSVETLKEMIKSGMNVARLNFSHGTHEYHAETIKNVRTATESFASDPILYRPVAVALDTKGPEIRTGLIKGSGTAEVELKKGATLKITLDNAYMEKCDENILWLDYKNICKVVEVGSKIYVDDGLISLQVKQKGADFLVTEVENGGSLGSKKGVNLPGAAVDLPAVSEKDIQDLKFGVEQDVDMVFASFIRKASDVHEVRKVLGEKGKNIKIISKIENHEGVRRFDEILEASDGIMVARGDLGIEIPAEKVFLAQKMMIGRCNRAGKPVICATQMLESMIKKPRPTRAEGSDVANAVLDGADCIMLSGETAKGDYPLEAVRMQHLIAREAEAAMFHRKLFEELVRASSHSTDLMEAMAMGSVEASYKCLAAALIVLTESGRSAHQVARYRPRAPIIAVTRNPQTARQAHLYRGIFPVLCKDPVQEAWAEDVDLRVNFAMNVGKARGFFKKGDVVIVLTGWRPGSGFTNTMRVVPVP

Assays:
[1] = MultiTox-Fluor Cytotoxicity Assay - LYMP1-001 - Dead Cells (AID 946); details: LYMP1-001 lymphoblastoid cells, dead-cell protease fluorescence; at 92.2 µM (top of the series);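 note: 0% = DMSO and 100% = tetraoctylammonium bromide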
Procedure, shortened: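 LYMP1-001 lymphoblastoid cells (2500/well) treated 16 h at 37 C. Dead-cell protease cleavage of bis-AAF-R110 read at Ex/Em 485/520. Normalized to DMSO and 15 uM tetraoctylammonium bromide; AC50 from Hill fits.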

[2] = MultiTox-Fluor Cytotoxicity Assay - LYMP1-001 - Live Cells (AID 947); details: LYMP1-001 lymphoblastoid cells, live-cell protease fluorescence viability; at 92.2 µM (top of the series);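 note: 0% = DMSO only and full inhibition = tetraoctylammonium bromide control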
[3] = Cell Viability - LYMP1-002 - Assay at 16 hr (AID 948); details: LYMP1-002 lymphoblastoid cell viability; at 92.2 µM (top of the series);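 note: 0% = DMSO alone and full effect = 92 µM tetraoctylammonium bromide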
Procedure, shortened: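 Seed 2500 LYMP1-002 cells per well in complete medium and hold 5 hr at 37 C. Add compound across a concentration series and incubate 16 hr at 37 C. Add CellTiter-Glo, wait 30 min at room temperature, read luminescence.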

[4] = MultiTox-Fluor Cytotoxicity Assay - LYMP1-002 - Live Cells (AID 955); details: LYMP1-002 lymphoblastoid live-cell protease fluorescence viability; at 46.1 µM (top of the series); note: % is set by controls: 0 for no effect and ±100 for the full control effect
Procedure, shortened: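 Human lymphoblastoid LYMP1-002 cells, 2500/well, treated 16 h at 37 C in complete medium. Live-cell protease activity via GF-AFC fluorescence (Ex/Em 405/510) after 60 min reagent incubation; AC50 from Hill fits.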

[5] = MultiTox-Fluor Cytotoxicity Assay - LYMP1-002 - Dead Cells (AID 960); details: LYMP1-002 lymphoblastoid cells, dead-cell protease fluorescence; at 46.1 µM (top of the series);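 note: 0% = DMSO and 100% = tetraoctylammonium bromide; nearly all actives have a fitted effect of over 60% in size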
Procedure, shortened: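 Human lymphoblastoid LYMP1-002 cells, 2500/well, treated 16 h at 37 C; dead-cell protease cleavage of bis-AAF-R110 read by fluorescence (485/520); normalized to DMSO and 15 uM tetraoctylammonium bromide; AC50 from Hill fit.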

[6] = MultiTox-Fluor Cytotoxicity Assay - LYMP1-003 - Dead Cells (AID 961); details: LYMP1-003 lymphoblastoid cells, dead-cell protease fluorescence; at 92.2 µM (top of the series);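 note: 0% = DMSO and 100% = tetraoctylammonium bromide; nearly all actives have a fitted effect of over 70% in size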
Procedure, shortened: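 LYMP1-003 human lymphoblastoid cells (2500/well) exposed to compound 16 h at 37 C in complete medium; dead-cell protease read with bis-AAF-R110 fluorescence (Ex/Em 485/520) after 60 min at room temperature. Normalized to DMSO and 15 uM tetraoctylammonium bromide; AC50 from Hill fit.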

[7] = MultiTox-Fluor Cytotoxicity Assay - LYMP1-003 - Live Cells (AID 962); details: LYMP1-003 lymphoblastoid cells, MultiTox-Fluor live-cell protease fluorescence; at 92.2 µM (top of the series);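 note: 0% = DMSO only and full loss = 92 µM tetraoctylammonium bromide; cytotoxic hits lower the live-cell protease signal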
Procedure, shortened: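 LYMP1-003 lymphoblastoid cells, 2500/well in complete medium, treated 16 h at 37 C; live-cell protease cleavage of GF-AFC read by fluorescence (Ex/Em 405/510) after 60 min reagent; AC50 from Hill fits of concentration-response.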

[8] = Cell Viability - LYMP1-003 - Assay at 24 hr (AID 963); details: LYMP1-003 lymphoblastoid cell viability; at 92.2 µM (top of the series);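 note: plate controls were DMSO only for no effect and tetraoctylammonium bromide positive control for full effect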
Procedure, shortened: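 Human lymphoblastoid LYMP1-003 cells, 2500/well, treated 24 h at 37 C in complete medium. Viability read as intracellular ATP by CellTiter-Glo luminescence after 30 min at room temperature; AC50 from Hill-equation fits of qHTS concentration-response.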

[9] = Cell Viability - LYMP1-003 - Assay at 40 hr (AID 964); details: LYMP1-003 lymphoblastoid viability; at 92.2 µM (top of the series); note: % is set by controls: 0 for no effect and ±100 for the full control effect; nearly all actives have a fitted effect of over 60% in size
Procedure, shortened: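 LYMP1-003 human lymphoblastoid cells, 2500/well, preincubated 5 h at 37 C, then treated with compound for 40 h at 37 C. Intracellular ATP read by CellTiter-Glo luminescence after 30 min at room temperature; AC50 from Hill-equation fits.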

[10] = Cell Viability - LYMP2-003 (AID 965); details: LYMP2-003 lymphoblastoid cell viability; at 92.2 µM (top of the series);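 note: cells exposed to compounds for 24 h before reading; 0% = DMSO only and full effect = 92 µM tetraoctylammonium bromide; nearly all actives have a fitted effect of over 50% in size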
Procedure, shortened: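 Seed 2500 lymphoblastoid cells/well; incubate 5 hr, 37 C; add compounds; incubate 24 hr, 37 C; add CellTiter-Glo, 30 min RT; read luminescence. AC50 from Hill fit.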

[11] = Cell Viability - LYMP2-004 (AID 966); details: LYMP2-004 lymphoblastoid cell viability, qHTS; at 92.2 µM (top of the series);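 note: plate controls were DMSO only for no effect and tetraoctylammonium bromide control for full effect; nearly all actives have a fitted effect of over 65% in size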
Procedure, shortened: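 Lymphoblastoid LYMP2-004 cells, 2500 per well, were preincubated for 5 hr and then treated with compound for 24 h at 37 C in complete medium. Viability was read as cellular ATP by CellTiter-Glo luminescence, and AC50 values were taken from Hill fits to concentration-response data.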

[12] = Cell Viability - LYMP2-005 (AID 967); details: LYMP2-005 lymphoblastoid cell viability; at 92.2 µM (top of the series);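 note: plate controls were DMSO only for no effect and 92 µM tetraoctylammonium bromide control for full effect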
Procedure, shortened: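 Acute cytotoxicity is scored as a concentration-dependent drop in intracellular ATP in human lymphoblastoid LYMP2-005 cells after 24 h compound treatment. ATP is quantified by luciferase luminescence, and AC50 is derived by Hill-equation modelling.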

[13] = Cell Viability - LYMP2-009 (AID 968); details: LYMP2-009 lymphoblastoid cell viability; at 92.2 µM (top of the series);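 note: 0% = DMSO alone and the full-kill end = tetraoctylammonium bromide at 92 µM; nearly all actives have a fitted effect of over 55% in size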
[14] = Cell Viability - LYMP2-011 (AID 969); details: LYMP2-011 lymphoblastoid cells viability; at 92.2 µM (top of the series);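 note: 0% = DMSO only and full inhibition = 92 µM tetraoctylammonium bromide; nearly all actives have a fitted effect of over 60% in size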
Procedure, shortened: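 2500 cells/well in complete medium, compound-treated 24 h at 37 C. Viability read as intracellular ATP by CellTiter-Glo luminescence after 30 min at room temperature. AC50 from Hill fits of qHTS concentration-response data.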

[15] = Cell Viability - LYMP2-013 (AID 970); details: LYMP2-013 lymphoblastoid cells viability; at 92.2 µM (top of the series);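 note: 0% = DMSO only and full inhibition = tetraoctylammonium bromide control; nearly all actives have a fitted effect of over 55% in size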
Procedure, shortened: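 Human lymphoblastoid LYMP2-013 cells, 2500/well, treated 24 h at 37 C in complete medium; viability as intracellular ATP by CellTiter-Glo luminescence after 30 min. AC50 from Hill fits of qHTS concentration-response.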

[16] = Cell Viability - LYMP2-015 (AID 971); details: LYMP2-015 lymphoblastoid cell viability; at 92.2 µM (top of the series);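 note: 0% = DMSO only and full effect = 92 µM tetraoctylammonium bromide; nearly all actives have a fitted effect of over 55% in size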
Procedure, shortened: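 LYMP2-015 human lymphoblastoid cells (2500/well) in complete medium, compound-treated 24 h at 37 C; viability read as cellular ATP by CellTiter-Glo luminescence after 30 min at room temperature. AC50 from Hill-equation fits of qHTS concentration-response data.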

[17] = Cell Viability - LYMP2-017 (AID 972); details: LYMP2-017 lymphoblastoid cell viability; at 92.2 µM (top of the series); note: % is set by controls: 0 for no effect and ±100 for the full control effect; nearly all actives have a fitted effect of over 55% in size
Procedure, shortened: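 LYMP2-017 human lymphoblastoid cells (2500/well) settled 5 hr at 37 C, then exposed to compound 24 hr at 37 C in complete medium. Viability taken as intracellular ATP by CellTiter-Glo luminescence after 30 min at RT; AC50 from Hill fits.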

[18] = target: Muscarinic acetylcholine receptor M1 (Rattus norvegicus) (UniProt P08482); assay: qHTS Assay for Antagonists of Acetylcholine Muscarinic M1 Receptor: Kinetic Measurement of Intracellular Calcium Response (AID 943); details: M1-expressing cells, kinetic intracellular calcium fluorescence; at 35.3 µM (top of the series);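 note: Fluo-4 calcium signal as peak divided by basal fluorescence over 4 min; nearly all actives have a fitted effect of over 75% in size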
[19] = target: Muscarinic acetylcholine receptor M1 (Rattus norvegicus) (UniProt P08482); assay: qHTS Assay for Antagonists of Acetylcholine Muscarinic M1 Receptor: Measurement of IP-One Response (AID 944); details: CHO-M1 cells, IP-One HTRF, antagonist mode; at 46.1 µM (top of the series); note: nearly all actives have a fitted effect of over 75% in size
[20] = target: Pyruvate kinase PKM (Homo sapiens) (UniProt P14618); assay: qHTS Assay for Activators of Human Muscle Pyruvate Kinase (AID 954; active = well fitted curve in the direction sought with a large enough effect, not every such curve was filed as active;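 note: 0% = uninhibited enzyme and -100% = no enzyme or full thiadiazolimine inhibition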); details: purified human PKM1 enzyme activity; at 57.5 µM (top of the series)
Procedure, shortened: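 Purified human PKM2 (0.1 nM) with 0.5 mM PEP (Km) and 0.1 mM ADP in 50 mM imidazole pH 7.2, KCl, MgCl2, 1 h at room temperature; ATP formed read by coupled luciferase luminescence. Normalized to no-enzyme/110 uM thiadiazolimine inhibition; 0.3 nM enzyme column for activation.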

O=[N+]([O-])c1cccc([N+](=O)[O-])c1
inactive: cytotoxicity (dead cells) [1] -12.9% | activity change, negative = cytotoxicity [2] -10.2% | activity change, negative = cytotoxicity [3] -4.09% | viability change, negative = cytotoxic [4] 1.49% | cytotoxicity (dead cells) [5] 9.88% | cytotoxicity (dead cells) [6] -4.17% | activity change, negative = fewer live cells [7] -3.69% | viability change, negative = cytotoxic [8] 3.39% | activity change, negative = cytotoxic [9] -9.69% | activity change, negative = cytotoxicity [10] 10.1% | activity change, negative = cytotoxicity [11] 0.653% | activity change, negative = viability loss [12] 10.9% | activity change, negative = viability loss [13] -3.25% | viability change, negative = cytotoxic [14] 6.46% | activity change, negative = cytotoxic [15] -4.52% | activity change, negative = lower viability [16] -15.2% | activity change, negative = cytotoxicity [17] -11.4%

Cc1c([N+](=O)[O-])cccc1[N+](=O)[O-]
inactive: cytotoxicity (dead cells) [1] -15.5% | activity change, negative = cytotoxicity [3] 0.892% | viability change, negative = cytotoxic [4] -0.459% | cytotoxicity (dead cells) [5] 5.24% | cytotoxicity (dead cells) [6] -3.66% | activity change, negative = fewer live cells [7] -3.51% | viability change, negative = cytotoxic [8] -2.66% | activity change, negative = cytotoxic [9] -0.898% | activity change, negative = cytotoxicity [10] 0.896% | activity change, negative = cytotoxicity [11] 6% | activity change, negative = viability loss [12] 10.9% | activity change, negative = viability loss [13] -2.57% | viability change, negative = cytotoxic [14] -2.56% | activity change, negative = cytotoxic [15] 0.651% | activity change, negative = lower viability [16] -5.97% | activity change, negative = cytotoxicity [17] -8.46%

N#[O+].[C-]#N.[C-]#N.[C-]#N.[C-]#N.[C-]#N.[Fe+2].[Na+].[Na+]
inactive: activity change, negative = inhibition [18] -43.8% | activity change, negative = inhibition [19] -27.3% | activity change, negative = inhibition [20] -12.7%

[NH4+].[O-][Cl+3]([O-])([O-])[O-]
inactive: cytotoxicity (dead cells) [1] -2.73% | activity change, negative = cytotoxicity [2] -0.755% | activity change, negative = cytotoxicity [3] -3.79% | viability change, negative = cytotoxic [4] 6.18% | cytotoxicity (dead cells) [5] 21.8% | cytotoxicity (dead cells) [6] -19.7% | activity change, negative = fewer live cells [7] -4.42% | viability change, negative = cytotoxic [8] 2.67% | activity change, negative = cytotoxic [9] -4.11% | activity change, negative = viability loss [12] 8.35% | activity change, negative = viability loss [13] -3.8% | activity change, negative = cytotoxic [15] -1.17%

CCOP(=O)(CC)OCC
inactive: cytotoxicity (dead cells) [1] 2.94% | activity change, negative = cytotoxicity [2] -10.5% | activity change, negative = cytotoxicity [3] -1.11% | viability change, negative = cytotoxic [4] -3.43% | cytotoxicity (dead cells) [5] 18.9% | cytotoxicity (dead cells) [6] -2.1% | activity change, negative = fewer live cells [7] -5.03% | viability change, negative = cytotoxic [8] -0.703% | activity change, negative = cytotoxic [9] 3.24% | activity change, negative = cytotoxicity [10] 10.9% | activity change, negative = cytotoxicity [11] 14.6% | activity change, negative = viability loss [12] 4.85% | activity change, negative = viability loss [13] 4.97% | viability change, negative = cytotoxic [14] 1.49% | activity change, negative = cytotoxic [15] -3.25% | activity change, negative = lower viability [16] -5.28% | activity change, negative = cytotoxicity [17] -7.31%
